Measurements published in PubChem BioAssay (Tox21).
The list shows a part of the results, in another mix than the full data. Results filed as inconclusive are left out. The source made the active and inactive calls. Unless noted, calls come from the whole dose curve.

Amino acid sequences for entries named in this document (tags omitted).
UniProt P16473, whole entry: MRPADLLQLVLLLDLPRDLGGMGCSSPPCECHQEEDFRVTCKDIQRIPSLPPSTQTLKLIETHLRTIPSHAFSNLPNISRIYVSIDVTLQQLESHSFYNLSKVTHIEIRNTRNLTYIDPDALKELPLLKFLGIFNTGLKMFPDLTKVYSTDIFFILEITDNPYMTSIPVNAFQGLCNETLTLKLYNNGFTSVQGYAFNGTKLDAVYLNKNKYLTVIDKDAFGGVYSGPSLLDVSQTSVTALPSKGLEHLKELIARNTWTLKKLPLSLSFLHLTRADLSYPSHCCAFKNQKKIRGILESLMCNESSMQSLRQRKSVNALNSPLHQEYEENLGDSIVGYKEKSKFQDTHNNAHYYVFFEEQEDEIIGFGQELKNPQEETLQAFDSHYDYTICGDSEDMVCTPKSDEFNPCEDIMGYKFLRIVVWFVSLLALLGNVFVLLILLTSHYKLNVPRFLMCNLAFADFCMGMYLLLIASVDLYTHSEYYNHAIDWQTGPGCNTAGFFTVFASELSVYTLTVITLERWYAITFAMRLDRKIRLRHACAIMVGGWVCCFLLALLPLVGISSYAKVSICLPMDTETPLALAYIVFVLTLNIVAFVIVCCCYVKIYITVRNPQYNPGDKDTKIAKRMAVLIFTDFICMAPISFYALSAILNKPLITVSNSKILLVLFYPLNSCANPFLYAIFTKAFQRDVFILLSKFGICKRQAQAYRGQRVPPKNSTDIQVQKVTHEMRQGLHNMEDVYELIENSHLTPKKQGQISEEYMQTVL

Assays:
[1] = molecular target: Thyrotropin receptor (Homo sapiens) (UniProt P16473); assay: qHTS assay to identify small molecule agonists of the thyroid stimulating hormone receptor (TSHR) signaling pathway (AID 1224843); note: nearly all actives have a fitted effect of over 45% in size
[2] = qHTS assay to identify small molecule agonists of the hypoxia (HIF-1) signaling pathway - cell viability counter screen (AID 1224844); settings: HRE-bla ME-180 viability, CellTiter-Glo luminescence, 17 h; at 76.8 µM (top of the series) unless noted; note: nearly all actives have a fitted effect of over 50% in size
Excerpt: (§1) National Center for Advancing Translational Sciences [NCATS]
(§2) NIH Chemical Genomics Center [NCGC]
(§3) U.S. Environmental Protection Agency [EPA]
(§4) National Institutes of Environmental Health Sciences [NIEHS]
(§5) National Toxicology Program [NTP]
(§6) U.S. Food and Drug Administration [FDA]
Hypoxia-inducible factor-1 (HIF-1) is the major hypoxia-regulated transcription factor that controls cellular responses to low oxygen concentration. HIF-1 is composed of two subunits: hypoxia responsive HIF-1-alpha and constitutively expressed HIF-1-beta, which is also known as aryl hydrocarbon receptor nuclear translocator. During hypoxic conditions, HIF-1-alpha heterodimerizes with HIF-1-beta and translocates into the nucleus where the HIF-1 complex binds to the hypoxia-response element (HRE) and activates expression of target genes such as VEGF (vascular endothelial growth factor). The HIF-1 pathway is essential to normal growth and development, and is involved in the pathophysiology of cancer, inflammation, and ischemia.
Using a beta-lactamase reporter-gene under control of the hypoxia response element, a cell-based assay [CellSensor(TM) HRE-bla ME-180 from Life Technologies, Carlsbad, CA] was used to measure hypoxia-induced signaling. Tox21 10K library compounds were measured for their ability to induce the reporter gene activity. The cytotoxicity of the Tox21 compound library against HRE-bla ME-180 cell line was tested in parallel by measuring cell viability using CellTiter-Glo assay (Promega, Madison, WI) in the same assay wells.
(§7) Tox21 Assay Protocol Summary:
HRE-bla ME-180 cells were dispensed at 2,000 cells per well in 6 uL of assay medium containing 0.5% dialyzed FBS into black wall/clear-bottom 1536-well plates using a Multidrop Combi (Thermo Scientific, Waltham, MA) dispenser. After the assay plates were incubated at 37C and 5% CO2 for 5 hrs, 23 nL of compounds dissolved in DMSO, positive controls or DMSO only was transferred to each well of the assay plate using a Pintool station (Kalypsys, San Diego, CA). The assay plates were incubated at 37C and 5% CO2 for 17 hrs. One uL of LiveBLAzerTM B/G FRET substrate (CCF4-AM) (Life Technologies) was added to each well using a Flying Reagent Dispenser (FRD, Aurora Discovery, San Diego, CA). After 2 hr incubation at room temperature, fluorescence intensity (405 nm excitation, 460 nm and 530 nm emissions) was measured using an Envision plate reader (PerkinElmer, Shelton, CT). For cytotoxicity, 4 ul/well of CellTiter-Glo reagent was added into the assay plates using an FRD. After 30 min incubation at room temperature, the luminescence intensity was measured using a ViewLux plate reader (PerkinElmer).

[3] = qHTS assay to identify small molecule agonists of H2AX (AID 1224845; active = well fitted activation curve with a large enough effect in the signal ratio in the repeat runs, not every such curve was filed as active; the % refers to the signal ratio); settings: CHO-K1 phospho-H2AX Ser139 HTRF, 3 h; at 154 µM (top of the series) unless noted
Excerpt: as §1, §2, §3, §4, §5, §6
(§8) HTRF phospho-H2AX (Ser139) assay (Cisbio Bioassays, US) enables the quantitative detection of the histone variant H2AX when phosphorylated on serine 139. When double-stranded DNA breaks, either by ionizing radiation or endogenous physiological processes, H2AX becomes phosphorylated at Ser139. This phospho-Ser139 serves as a sensitive biomarker for the detection of such breaks, localizing the site of DNA repair. So, HTRF phospho-H2AX Ser139 is a pertinent assay to study genome stability, the cell cycle, DNA repair, and it serves as a biomarker for cancer, and to understand aging. Wild type CHO-K1 cells were used to identify the inducers of Phospho-H2AX Ser 139 from the Tox21 10K compound collections.
as §7
The CHO-K1 cells suspended in culture medium containing 10% FBS were dispensed at 1000 cells/ 3 ul/well in 1536-well white wall/solid bottom plates (Greiner Bio-One North America, NC) using a Multidrop Combi (Thermo Fisher Scientific Inc., Waltham, MA). After the assay plates were incubated at 37C overnight, 23 nl of compounds at 15 concentrations (from 5-48 columns) or positive control (from 1 to 4 columns) were transferred to the assay plates using a Pintool station (Wako, San Diego, CA) into each well resulting in a final DMSO concentration of 0.76%. After 3hr incubation at 37C, 1 uL/well Supplemented Lysis buffer (diluted 100 fold blocking reagent in lysis buffer) (HTRF Phospho-H2A.X (S139) Assay kit from Cisbio US Inc., Bedford, MA) was added using a Flying Reagent Dispenser (FRD) (Aurora Discovery, CA). After 10sec spin at 1000 rpm in a plate centrifuge, the assay plates were incubated at room temperature for 30 min. Then followed by the addition of 1 uL/well detection buffer (containing a mixture of two antibodies, one labeled with cryptate, Anti pH2AX (S139)-K and another labeled with d2, Anti H2AX-d2) using FRD. After incubation at room temperature for 24 hr, the time resolved fluorescence at excitation 320 nm and emissions at 665 nm and 620 nm was measured using an Envision plate reader (PerkinElmer, Waltham, MA).

[4] = qHTS assay to identify small molecule agonists of the hypoxia (HIF-1) signaling pathway (AID 1224846; active = well fitted activation curve with a large enough effect in the signal ratio in the repeat runs, not every such curve was filed as active; the % refers to the signal ratio); settings: HRE-bla ME-180 cells, beta-lactamase ratio, 17 h; at 76.8 µM (top of the series) unless noted
Summary of the method: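 HRE-bla ME-180 beta-lactamase reporter cells in medium with 0.5% dialyzed FBS, pre-incubated 5 h then exposed to compounds 17 h at 37C, 5% CO2; reporter induction read with CCF4-AM FRET substrate.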

[5] = qHTS assay to identify small molecule agonists of H2AX - cell viability counter screen (AID 1224847); settings: CHO-K1 viability, CellTiter-Glo luminescence, 3 h; at 154 µM (top of the series) unless noted; note: top concentration of the series differs between compounds; nearly all actives have a fitted effect of over 30% in size
Excerpt: as §1, §2, §3, §4, §5, §6
as §8, with “Tox21 compound collections. Also cytotoxicity of the Tox21” for “Tox21”, “library against the CHO-K1 cell line was tested by measuring the cell viability using CellTiter-Glo assay (Promega, Madison, WI).” for “collections.”
as §7
The CHO-K1 cells suspended in culture medium containing 10% FBS were dispensed at 1000 cells/ 3 ul/well in 1536-well white wall/solid bottom plates (Greiner Bio-One North America, NC) using a Multidrop Combi (Thermo Fisher Scientific Inc., Waltham, MA). After the assay plates were incubated at 37C overnight, 23 nl of compounds at 15 concentrations (from 5-48 columns) or positive control (from 1 to 4 columns) were transferred to the assay plates using a Pintool station (Wako, San Diego, CA) into each well resulting in a final DMSO concentration of 0.76%. After 3hr incubation at 37C, 3 uL/well CellTiter-Glo luminescent cell viability reagent (Promega Corporation, Madison, WI) was added using a Flying Reagent Dispenser (FRD) (Aurora Discovery, CA). After incubation at room temperature for 30 min, the luminescence intensity was read using a ViewLux plate reader (PerkinElmer, Waltham, MA).

[6] = qHTS assay to identify small molecule antagonists of the estrogen related receptor (ERR) signaling pathway from Tox21 library (AID 1224848; active = well fitted curve in the direction sought with a large enough effect in the repeat runs; an effect the other way counts as inactive or inconclusive; note: nearly all actives have a fitted effect of over 50% in size)
Summary of the method: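 Luminescent reporter read-out (ONE-Glo) from NTP's ERR cell line after 18 h treatment at 37 C with DMSO-dissolved Tox21 compounds; cells pre-plated 6 h beforehand at 2,000 per well.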

[7] = qHTS assay to identify small molecule agonists of the estrogen related receptor (ERR) signaling pathway from Tox21 library (AID 1224849); settings: ERR reporter cell line, ONE-Glo luciferase, 18 h; at 92.4 µM (top of the series) unless noted; note: nearly all actives have a fitted effect of over 15% in size
Excerpt: as §1, §2, §3, §4, §5
Estrogen related receptors (ERRs), the first orphan nuclear receptors discovered, play an important role in the control of cellular energy metabolism. ERRs are required for high-energy production in response to the environmental challenges. ERR-alpha was also identified as an adverse marker for breast cancer progression; ERR-alpha-positive tumors have a poor prognosis. To screen and to identify environmental compounds that perturb the ERR signaling pathways could provide valuable information for potential therapeutic or preventive measures in the treatment of metabolic disease. For identifying ERR agonists, ERR cell line (provided by NTP) has been used to screen Tox21 10K library.
The ERR cells were dispensed at 2,000 cells/5 ul/well in 1536-well white plates using a Multidrop dispenser. After the assay plates were incubated at a 37 C/5% CO2 incubator for 6 hours, 23 nL of compounds dissolved in DMSO, positive and negative controls or DMSO only was transferred to the assay plate by a pin tool. The plates were incubated at 37 C for 18 hours. 4 ul/well of One-Glo reagent was added into the assay plates using a Flying Reagent Dispenser. After 30-minute incubation at room temperature, the luminescence intensity in the plates was measured using a ViewLux plate reader.

[8] = qHTS RealTime-Glo MT Cell Viability Assay in HepG2 cells - 24 hour (AID 1224867; active = well fitted curve in the direction sought with a large enough effect in the repeat runs; an effect the other way counts as inactive or inconclusive; note: nearly all actives have a fitted effect of over 50% in size); settings: RealTime-Glo luminescence; at 76.8 µM (top of the series) unless noted
Summary of the method: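 Compound treatment began 5 h after plating HepG2 cells (600/well) with NanoLuc luciferase and prosubstrate. Plates stayed at 37 C for 40 h; luminescence was captured at six time points, 0 h through 40 h.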

[9] = qHTS RealTime-Glo MT Cell Viability Assay in HEK293 cells - 32 hour (AID 1224868; active = well fitted curve in the direction sought with a large enough effect in the repeat runs; an effect the other way counts as inactive or inconclusive; note: top concentration of the series differs between compounds; nearly all actives have a fitted effect of over 50% in size)
Excerpt: as §1, §2, §3, §4, §5, §6
Measure of cell viability is critical in the cell-base assay. Analysis of cell viability is necessary for the characterization of cell responses to cytotoxic drugs and environmental stress. A RealTime-Glo MT Cell Viability Assay to monitor cell viability in real time of continues cell culture during 40 hours of compound treatment was used to screen Tox21 10K library compounds in Hek293 cells. The RealTime-Glo MT Cell Viability Assay is a nonlytic, homogeneous, bioluminescent method to measure cell viability in real time using a simple, plate-based method. The assay involves adding NanoLuc luciferase and a cell-permeant prosubstrate to cells in culture. Viable cells reduce the proprietary prosubstrate to generate a substrate for NanoLuc luciferase. This substrate diffuses from cells into the surrounding culture medium, where it is rapidly used by the NanoLuc Enzyme to produce a luminescent signal. The signal correlates with the number of viable cells, making the assay well suited for cytotoxicity studies.
as §7
The mixture of Hek293 cell suspension and reagents were dispensed at 600cells/6 ul/well in 1536-well tissue culture treated black solid bottom plates using a Multidrop dispenser. After the assay plates were incubated at a 37 C/5% CO2 incubator for 5 hours, 23 nL of compounds dissolved in DMSO, positive and negative controls was transferred to the assay plate by a pintool work station. The plates were incubated at 37 C for 40 hours. The luminescence intensity were measured at 0h, 8h, 16h, 24h, 32h and 40h time points using ViewLux plate reader during compound treatment.

[10] = A CellTox Green Cytotoxicity Assay to monitor cytotoxicity in HEK293 cells - 0 hour (AID 1224869; active = well fitted curve in the direction sought with a large enough effect in the repeat runs; an effect the other way counts as inactive or inconclusive; note: nearly all actives have a fitted effect of over 50% in size); settings: CellTox Green fluorescence; at 76.8 µM (top of the series) unless noted
Summary of the method: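 HEK293 cells, 600/well, were preincubated 5 hours and then exposed to compounds at 37 C for up to 40 hours. A cell-impermeant cyanine dye staining dead-cell DNA was read by fluorescence at 0, 8, 16, 24, 32 and 40 h time points.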
% is set by controls: 0 for no effect and ±100 for the full control effect.

CCOP(=S)(Cl)OCC
inactive: Potency [1] | activity change, negative = cytotoxicity [2] 0.376% | activation (H2AX phosphorylation) [3] 0.442% | activation [4] -0.0436% | activity change, negative = cytotoxicity [5] -0.049% | Potency [6] | activity change, positive = activation [7] -15.2% | activity change, negative = cytotoxicity [8] -3.42% | Potency [9] | cytotoxicity [10] 2.07%

ClCCNCCCl
inactive: Potency [1] | activity change, negative = cytotoxicity [2] -18.7% | activation (H2AX phosphorylation) [3] 2.77% | activation [4] 0.155% | activity change, negative = cytotoxicity [5] -0.141% | Potency [6] | activity change, positive = activation [7] -8.64% | activity change, negative = cytotoxicity [8] -4.52% | Potency [9] | cytotoxicity [10] 0.302%

CCC(=O)N(c1ccccc1)C1CCNCC1
inactive: Potency [1] | activity change, negative = cytotoxicity [2] 2.72% [at 35.3 µM] | activation (H2AX phosphorylation) [3] 1.13% [at 70.9 µM] | activation [4] -0.119% [at 35.5 µM] | activity change, negative = cytotoxicity [5] 0.761% [at 70.9 µM] | Potency [6] | activity change, positive = activation [7] 2.02% [at 42.5 µM] | activity change, negative = cytotoxicity [8] 4.92% [at 35.3 µM] | Potency [9] | cytotoxicity [10] -2.1% [at 35.3 µM]

CCOC(=O)N1CCC(=O)CC1
inactive: Potency [1] | activity change, negative = cytotoxicity [2] 1.68% [at 35.3 µM] | activation (H2AX phosphorylation) [3] -1.06% [at 70.9 µM] | activation [4] -0.907% [at 35.5 µM] | activity change, negative = cytotoxicity [5] 3.67% [at 70.9 µM] | Potency [6] | activity change, positive = activation [7] 0.104% [at 42.5 µM] | activity change, negative = cytotoxicity [8] 1.06% [at 35.3 µM] | Potency [9] | cytotoxicity [10] 2.09% [at 35.3 µM]
